Measured values: PubChem BioAssay AID651602 (The Scripps Research Institute Molecular Screening Center, 2012)
This is a selection; strong and weak results do not stand in their true shares. The source made the active and inactive calls. No stated cut-off is given here; in the data, active means inhibition above about 11%; inactive means the rest.

Experiment: growth loss of phage-infected E. coli, primary screen, RecBCD inhibitor project, absorbance, with phage, HTS (AID 651602)
Conditions: at 11.9 µM, stronger effect = higher value

Row | Compound | inhibition
1 | CCC(=O)N(c1ccccc1)C1(COC)CCN(CCc2cccs2)CC1 | inactive: -0.38%
2 | CCC(=O)N(c1ccccc1)C1(COC)CCN(CCn2nnn(CC)c2=O)CC1 | inactive: 1.45%
